## Binding of CDR-mutated scFvs to a peptide of the spike HR2 region

Values reported by Engelhart et al. 2022, doi:10.1038/s41597-022-01779-4 (FLAb copy).

Target peptide (SARS-CoV-2 spike, HR2 region): PDVDLGDISGINAS

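AAYL52 was designed without a model: most single CDR substitutions and a random sample of double and triple ones. In AlphaSeq, yeast of one mating type display the scFv and yeast of the other type display the target. Pairs that bind mate more often; barcode pairs of the diploids are counted by sequencing. Scores were corrected for input abundance and mapped to Kd with protein pairs of known affinity run in the same pool. Mating was done three times.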

The variants keep the heavy chain, the linker and the frameworks of Ab-95 (scFv order VH, the linker GGGGSGGGGSGGGGS, VL).
VH: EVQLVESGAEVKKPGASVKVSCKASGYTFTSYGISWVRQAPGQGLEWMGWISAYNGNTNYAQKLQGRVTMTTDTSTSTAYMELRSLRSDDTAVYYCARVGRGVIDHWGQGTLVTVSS
VL: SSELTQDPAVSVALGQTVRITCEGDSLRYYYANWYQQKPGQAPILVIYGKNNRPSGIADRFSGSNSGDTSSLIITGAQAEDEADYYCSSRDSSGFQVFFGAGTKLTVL

Positions count from residue 1 of the parent VL; S26C puts C in place of S.
This list gathers variants with a substitution at S26 (VL, numbered from residue 1).
Affinities are written as log10 Kd with Kd in nM; a lower number is a better binder.
The mean shown is taken over the replicates in which the pair was detected.
"no signal" marks a missing value. The strain was present, yet no cells mated with the target were sequenced in any replicate, which points to weak or no binding.

* S26C Y30Q D91Q -> 4.15 (2 of 3 replicates; controls 2 of 9)
* G24P S26C L27F -> 3.95 (1 of 3 replicates; controls 0 of 9)
* S26F D91E -> 4.70 (1 of 3 replicates; controls 2 of 9)
* S26Y R90D V97L -> 3.39 (1 of 3 replicates; controls 1 of 9)
* S26R L27T G94E -> 3.58 (1 of 3 replicates; controls 5 of 9)
* S26E S93G F95M -> 3.61 (2 of 3 replicates; controls 5 of 9)
* S26L G49Q R53F -> no signal (0 of 3 replicates; controls 2 of 9)
* D25N S26C S55F -> 4.64 (2 of 3 replicates; controls 2 of 9)
* G24A S26R N33A -> 3.86 (1 of 3 replicates; controls 6 of 9)
* S26T Y31I D91P -> no signal (0 of 3 replicates; controls 0 of 9)
* E23G S26R L27D -> 2.74 (3 of 3 replicates; controls 3 of 9)
* S26W A32M R90C -> 3.72 (2 of 3 replicates; controls 2 of 9)
* D25M S26Y Y31N -> 2.50 (3 of 3 replicates; controls 3 of 9)
* S26V R28G N51Q -> 4.41 (3 of 3 replicates; controls 2 of 9)
* S26N Y30T R53K -> 0.99 (3 of 3 replicates; controls 4 of 9)
* S26Y K50P Q96G -> 4.35 (3 of 3 replicates; controls 2 of 9)
* S26R G49M G94W -> no signal (0 of 3 replicates; controls 2 of 9)
* E23F S26T S89H -> no signal (0 of 3 replicates; controls 4 of 9)
* D25C S26W F98W -> 3.66 (3 of 3 replicates; controls 2 of 9)
* S26H N33H -> 4.46 (1 of 3 replicates; controls 3 of 9)
* S26A S55E G94W -> 1.82 (3 of 3 replicates; controls 3 of 9)
* S26F R28W S88A -> 3.36 (2 of 3 replicates; controls 5 of 9)
* S26Y L27R N33D -> 3.17 (2 of 3 replicates; controls 4 of 9)
* S26A R28F F98L -> 2.84 (3 of 3 replicates; controls 2 of 9)
* S26C L27D F95W -> 4.82 (2 of 3 replicates; controls 3 of 9)
* S26M N33I S89E -> 3.28 (2 of 3 replicates; controls 1 of 9)
* S26A L27C P54S -> 2.83 (3 of 3 replicates; controls 2 of 9)
* G24H S26W F95S -> 3.62 (3 of 3 replicates; controls 3 of 9)
* S26Y L27F S89L -> 3.70 (1 of 3 replicates; controls 4 of 9)
* S26E N52S D91K -> 4.42 (1 of 3 replicates; controls 2 of 9)
* S26M P54R S89K -> no signal (0 of 3 replicates; controls 1 of 9)
* S26A K50A S93A -> 2.42 (3 of 3 replicates; controls 3 of 9)
* S26P L27S F95S -> 3.11 (2 of 3 replicates; controls 3 of 9)
* E23I S26K P54Q -> no signal (0 of 3 replicates; controls 0 of 9)
* D25I S26K F95R -> 2.60 (3 of 3 replicates; controls 3 of 9)
* S26K R28W S88T -> 3.70 (3 of 3 replicates; controls 2 of 9)
* S26T N33P P54Q -> 2.81 (2 of 3 replicates; controls 2 of 9)
* S26P Y31T N51W -> 4.22 (2 of 3 replicates; controls 6 of 9)
* S26K Y30R N33L -> 3.19 (1 of 3 replicates; controls 1 of 9)
* S26Y L27F D91G -> 3.81 (1 of 3 replicates; controls 2 of 9)
* G24V S26C L27T -> no signal (0 of 3 replicates; controls 1 of 9)
* S26P S55E S93Q -> 2.26 (3 of 3 replicates; controls 4 of 9)
* S26H F95G Q96Y -> 3.50 (2 of 3 replicates; controls 4 of 9)
* S26Y Y31K S92A -> no signal (0 of 3 replicates; controls 0 of 9)
* S26E P54C R90D -> 5.51 (1 of 3 replicates; controls 3 of 9)
* S26Q N33D R90P -> 3.71 (2 of 3 replicates; controls 4 of 9)
* S26K S89F F98A -> 5.09 (1 of 3 replicates; controls 6 of 9)
* S26H R53L -> 3.32 (3 of 3 replicates; controls 5 of 9)

Picked from the list: the 5 lowest averages where every replicate gave a value.

* S26N Y30T R53K -> 0.99 (3 of 3 replicates; controls 4 of 9)
* S26A S55E G94W -> 1.82 (3 of 3 replicates; controls 3 of 9)
* S26P S55E S93Q -> 2.26 (3 of 3 replicates; controls 4 of 9)
* S26A K50A S93A -> 2.42 (3 of 3 replicates; controls 3 of 9)
* D25M S26Y Y31N -> 2.50 (3 of 3 replicates; controls 3 of 9)

Parent in this assay: reference entry 2.31, copy in this library 2.25.
Background: pairings of library AAYL52 with three empty control strains gave a value in 28% of cases (median 3.91, 5th percentile 2.90). Values in that range, when seen in few replicates, are hard to tell from nonspecific mating. For each scFv, signals with the empty controls are counted beside the result.